The results in this text go back to paper PMC11040377.

By UniProt entry, the sequences of proteins in these tests, tags left out. Residues count along the entry.
UniProt Q61790, 24-521: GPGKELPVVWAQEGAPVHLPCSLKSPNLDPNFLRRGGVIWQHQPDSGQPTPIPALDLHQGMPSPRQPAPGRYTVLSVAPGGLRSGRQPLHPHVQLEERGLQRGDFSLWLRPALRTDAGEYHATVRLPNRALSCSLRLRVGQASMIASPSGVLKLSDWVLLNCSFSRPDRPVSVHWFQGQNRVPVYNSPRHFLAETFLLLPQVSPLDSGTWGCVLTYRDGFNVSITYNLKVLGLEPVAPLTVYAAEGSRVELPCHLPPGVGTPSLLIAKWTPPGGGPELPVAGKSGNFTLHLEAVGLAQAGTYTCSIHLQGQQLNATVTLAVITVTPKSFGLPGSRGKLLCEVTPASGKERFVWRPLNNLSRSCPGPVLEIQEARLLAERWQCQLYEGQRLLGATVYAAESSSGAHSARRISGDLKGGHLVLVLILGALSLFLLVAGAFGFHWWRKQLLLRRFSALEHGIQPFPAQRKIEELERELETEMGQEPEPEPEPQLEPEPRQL

In general, Kd refers to the constant that tells how readily two partners part at equilibrium.

Experiment [1] has as its target neuronal Lag3, endogenous on mouse primary cortical neurons (mouse (endogenous in primary cortical neurons)) (UniProt Q61790). Briefly: cell surface binding assay (streptavidin-alkaline phosphatase staining); mouse primary cortical neurons, WT and Lag3-/-; Tau-biotin PFF at different concentrations; specific binding to Lag3 by subtracting the binding to Lag3-/- neurons from that to WT neurons.

The target in experiment [2] is Lag3 (lymphocyte-activation gene 3), on transfected SH-SY5Y cells (not stated (human or mouse cDNA cloned)) (UniProt Q61790). Description: cell surface binding assay (streptavidin-alkaline phosphatase staining); SH-SY5Y cells transfected with Lag3 or its deletion mutants; biotin-labelled ligand at different concentrations (monomer equivalent) in DMEM with 10% FBS, 2 h at RT; washed, fixed, bound biotin detected with streptavidin-AP and BCIP/NBT; intensity by ImageJ, KD by GraphPad Prism.

Turning to “Tau-biotin PFF (AD-Tau-induced Tau preformed fibrils, biotin-labelled) (from UniProt P10636-8 1-441)”, the Kd in experiment [1] stood at 100 nM; in experiment [2], 158 nM.
